# Assay results reported in PMC11109662, “Discovery of Novel Anti‐Resistance AR Antagonists Guided by Funnel Metadynamics Simulation” (Advanced Science, 2024).
# Protein sequences, listed by entry. Tags and fused reporters are not part of them.
# UniProt P10275, whole entry: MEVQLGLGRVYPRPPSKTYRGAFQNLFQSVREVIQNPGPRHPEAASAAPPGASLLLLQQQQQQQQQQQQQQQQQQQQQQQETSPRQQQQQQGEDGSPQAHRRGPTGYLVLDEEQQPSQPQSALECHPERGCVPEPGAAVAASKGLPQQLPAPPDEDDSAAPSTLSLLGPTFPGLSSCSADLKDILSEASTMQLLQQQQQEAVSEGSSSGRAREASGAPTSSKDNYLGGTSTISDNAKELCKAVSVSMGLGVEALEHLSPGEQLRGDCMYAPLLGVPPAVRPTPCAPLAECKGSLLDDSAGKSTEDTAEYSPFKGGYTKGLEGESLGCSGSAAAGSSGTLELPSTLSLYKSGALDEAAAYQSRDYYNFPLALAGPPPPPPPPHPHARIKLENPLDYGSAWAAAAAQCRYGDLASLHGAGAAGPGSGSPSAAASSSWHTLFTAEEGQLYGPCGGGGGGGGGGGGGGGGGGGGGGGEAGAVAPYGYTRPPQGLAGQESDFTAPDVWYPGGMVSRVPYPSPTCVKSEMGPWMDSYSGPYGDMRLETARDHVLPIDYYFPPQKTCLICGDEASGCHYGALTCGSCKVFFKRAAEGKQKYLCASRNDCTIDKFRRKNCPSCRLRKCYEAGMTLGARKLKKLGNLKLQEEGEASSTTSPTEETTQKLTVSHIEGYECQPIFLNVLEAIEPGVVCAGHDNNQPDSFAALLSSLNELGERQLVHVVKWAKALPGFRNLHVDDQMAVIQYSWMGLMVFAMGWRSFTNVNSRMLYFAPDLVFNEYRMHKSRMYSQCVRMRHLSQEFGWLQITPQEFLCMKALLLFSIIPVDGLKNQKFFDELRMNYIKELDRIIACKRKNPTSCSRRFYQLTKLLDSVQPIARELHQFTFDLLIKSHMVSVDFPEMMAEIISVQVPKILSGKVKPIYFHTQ
# UniProt P10275, whole entry F877L: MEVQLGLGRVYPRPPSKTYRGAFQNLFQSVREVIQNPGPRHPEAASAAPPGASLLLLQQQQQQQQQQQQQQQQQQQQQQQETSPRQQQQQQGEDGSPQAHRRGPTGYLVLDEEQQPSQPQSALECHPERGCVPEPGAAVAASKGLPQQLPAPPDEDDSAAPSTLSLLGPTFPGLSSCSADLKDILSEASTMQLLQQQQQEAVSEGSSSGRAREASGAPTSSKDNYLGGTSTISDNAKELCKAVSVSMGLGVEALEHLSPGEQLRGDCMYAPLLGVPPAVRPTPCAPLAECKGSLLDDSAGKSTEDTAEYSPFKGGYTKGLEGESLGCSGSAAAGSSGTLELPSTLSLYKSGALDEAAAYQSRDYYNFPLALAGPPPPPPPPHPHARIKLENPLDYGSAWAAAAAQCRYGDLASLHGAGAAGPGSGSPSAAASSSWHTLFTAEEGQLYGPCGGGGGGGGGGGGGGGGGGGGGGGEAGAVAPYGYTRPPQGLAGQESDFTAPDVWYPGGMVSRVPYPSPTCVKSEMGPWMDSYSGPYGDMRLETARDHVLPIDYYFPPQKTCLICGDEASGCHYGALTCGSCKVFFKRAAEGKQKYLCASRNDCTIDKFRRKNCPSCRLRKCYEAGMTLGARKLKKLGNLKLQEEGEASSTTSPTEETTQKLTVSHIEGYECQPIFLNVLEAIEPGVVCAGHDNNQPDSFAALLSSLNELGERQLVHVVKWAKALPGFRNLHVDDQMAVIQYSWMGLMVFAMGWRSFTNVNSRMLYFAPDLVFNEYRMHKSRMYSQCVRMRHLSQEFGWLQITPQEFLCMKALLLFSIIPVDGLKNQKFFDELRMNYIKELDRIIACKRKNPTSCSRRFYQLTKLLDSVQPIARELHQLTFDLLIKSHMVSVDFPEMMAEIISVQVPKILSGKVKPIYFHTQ
# UniProt P10275, whole entry T878G: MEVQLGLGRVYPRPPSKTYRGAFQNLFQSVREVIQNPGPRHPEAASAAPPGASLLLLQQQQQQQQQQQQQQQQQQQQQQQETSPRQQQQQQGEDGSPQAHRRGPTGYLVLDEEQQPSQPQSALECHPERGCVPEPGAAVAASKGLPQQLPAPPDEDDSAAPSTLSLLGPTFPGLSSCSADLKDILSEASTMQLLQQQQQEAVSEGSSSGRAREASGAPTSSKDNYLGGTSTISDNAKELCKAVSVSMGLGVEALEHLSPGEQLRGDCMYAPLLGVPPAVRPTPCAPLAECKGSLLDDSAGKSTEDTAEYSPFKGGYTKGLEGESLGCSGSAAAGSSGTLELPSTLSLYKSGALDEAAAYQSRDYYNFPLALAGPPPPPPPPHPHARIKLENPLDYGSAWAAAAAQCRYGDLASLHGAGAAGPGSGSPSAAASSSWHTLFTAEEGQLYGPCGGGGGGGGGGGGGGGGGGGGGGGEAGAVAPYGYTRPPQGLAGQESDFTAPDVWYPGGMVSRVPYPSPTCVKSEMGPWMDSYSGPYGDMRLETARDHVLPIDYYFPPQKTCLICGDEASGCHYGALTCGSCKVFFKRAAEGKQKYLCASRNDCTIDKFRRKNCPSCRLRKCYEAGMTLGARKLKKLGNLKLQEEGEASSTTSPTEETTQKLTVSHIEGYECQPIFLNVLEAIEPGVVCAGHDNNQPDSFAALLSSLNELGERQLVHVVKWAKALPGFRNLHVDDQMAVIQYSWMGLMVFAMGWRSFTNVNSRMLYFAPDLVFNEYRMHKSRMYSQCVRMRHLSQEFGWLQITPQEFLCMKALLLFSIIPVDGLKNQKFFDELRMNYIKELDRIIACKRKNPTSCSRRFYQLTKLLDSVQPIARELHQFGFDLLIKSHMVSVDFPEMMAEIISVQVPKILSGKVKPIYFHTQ
# UniProt P10275, whole entry W742C: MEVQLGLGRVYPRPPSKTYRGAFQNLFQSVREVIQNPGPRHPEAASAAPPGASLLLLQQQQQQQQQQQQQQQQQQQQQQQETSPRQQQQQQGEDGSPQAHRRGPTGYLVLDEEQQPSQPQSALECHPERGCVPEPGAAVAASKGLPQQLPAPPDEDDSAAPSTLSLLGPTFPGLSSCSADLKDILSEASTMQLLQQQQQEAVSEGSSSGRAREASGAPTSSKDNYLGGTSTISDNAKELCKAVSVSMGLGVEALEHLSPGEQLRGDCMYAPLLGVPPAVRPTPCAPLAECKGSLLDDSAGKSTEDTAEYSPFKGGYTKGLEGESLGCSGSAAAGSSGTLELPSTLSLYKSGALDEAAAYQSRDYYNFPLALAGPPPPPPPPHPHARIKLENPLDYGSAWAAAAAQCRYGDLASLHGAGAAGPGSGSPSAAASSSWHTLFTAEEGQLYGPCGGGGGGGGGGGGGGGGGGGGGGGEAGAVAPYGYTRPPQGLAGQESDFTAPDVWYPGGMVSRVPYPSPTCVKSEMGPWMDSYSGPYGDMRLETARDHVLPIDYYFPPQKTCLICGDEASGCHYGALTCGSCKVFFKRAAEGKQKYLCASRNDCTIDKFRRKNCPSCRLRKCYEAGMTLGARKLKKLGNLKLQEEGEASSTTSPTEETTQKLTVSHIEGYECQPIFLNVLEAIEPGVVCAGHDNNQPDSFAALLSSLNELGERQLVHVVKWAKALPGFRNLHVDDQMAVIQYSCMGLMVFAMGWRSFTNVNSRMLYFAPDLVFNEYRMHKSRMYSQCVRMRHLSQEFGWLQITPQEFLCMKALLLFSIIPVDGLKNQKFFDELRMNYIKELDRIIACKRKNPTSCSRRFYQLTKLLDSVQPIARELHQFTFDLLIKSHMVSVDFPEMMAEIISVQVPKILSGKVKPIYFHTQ
# UniProt P10275, whole entry F877L/T878A: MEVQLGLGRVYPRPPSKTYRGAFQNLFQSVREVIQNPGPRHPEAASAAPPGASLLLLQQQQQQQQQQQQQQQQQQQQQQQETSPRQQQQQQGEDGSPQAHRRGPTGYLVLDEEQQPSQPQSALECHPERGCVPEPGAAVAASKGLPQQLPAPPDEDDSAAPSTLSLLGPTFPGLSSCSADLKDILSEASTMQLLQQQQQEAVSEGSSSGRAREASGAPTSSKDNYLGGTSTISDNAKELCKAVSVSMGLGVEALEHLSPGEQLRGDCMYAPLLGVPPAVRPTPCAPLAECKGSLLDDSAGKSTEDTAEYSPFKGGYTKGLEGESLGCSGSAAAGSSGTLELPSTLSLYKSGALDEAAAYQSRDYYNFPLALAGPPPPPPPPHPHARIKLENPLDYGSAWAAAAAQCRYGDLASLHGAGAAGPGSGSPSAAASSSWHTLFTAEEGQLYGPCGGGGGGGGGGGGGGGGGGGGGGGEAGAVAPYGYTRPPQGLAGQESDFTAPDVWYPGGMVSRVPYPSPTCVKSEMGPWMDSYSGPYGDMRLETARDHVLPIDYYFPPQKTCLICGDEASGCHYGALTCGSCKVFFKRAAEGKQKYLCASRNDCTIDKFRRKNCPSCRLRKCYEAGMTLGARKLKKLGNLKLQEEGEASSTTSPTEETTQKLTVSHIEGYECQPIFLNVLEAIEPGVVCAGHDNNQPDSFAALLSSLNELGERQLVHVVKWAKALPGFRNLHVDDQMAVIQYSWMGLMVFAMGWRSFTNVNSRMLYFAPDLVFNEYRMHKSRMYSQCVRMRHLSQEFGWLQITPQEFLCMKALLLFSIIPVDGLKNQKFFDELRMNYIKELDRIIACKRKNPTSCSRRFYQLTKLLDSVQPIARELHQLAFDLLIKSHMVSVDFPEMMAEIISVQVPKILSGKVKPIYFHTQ
# Experiments:
# Test in all cases: dual luciferase reporter gene assay in PC3 cells
# [1] = target: WT-AR (hAR) (Homo sapiens, UniProt P10275); settings: read-out: AR transcriptional activity IC50 [μM] / WT-AR; antagonist mode, […] DHT, […] h
# [2] = target: WT-AR (hAR) (Homo sapiens, UniProt P10275, F877L); settings: read-out: AR transcriptional activity IC50 [μM] / F876L; antagonist mode, […] DHT, […] h; stated gain
# [3] = target: WT-AR (hAR) (Homo sapiens, UniProt P10275, F877L/T878A); settings: read-out: AR transcriptional activity IC50 [μM] / F876L/T877A; antagonist mode, […] DHT, […] h; stated gain
# [4] = target: WT-AR (hAR) (Homo sapiens, UniProt P10275, T878G); settings: read-out: AR transcriptional activity IC50 [μM] / T877G; antagonist mode, […] DHT, […] h; stated gain
# [5] = target: WT-AR (hAR) (Homo sapiens, UniProt P10275, W742C); settings: read-out: AR transcriptional activity IC50 [μM] / W741C; antagonist mode, […] DHT, […] h; stated gain
structure (smiles),measurement,setting,value
O=C1Sc2ccc(S(=O)(=O)Nc3ccc(O)cc3)c3cccc1c23,IC50,[1],1.17 µM
same,IC50,[2],0.35 µM
same,IC50,[3],0.35 µM
same,IC50,[4],0.06 µM
same,IC50,[5],0.33 µM
